{"sequences": {"note": "Chains of the proteins cited; added tags and fusions are not shown.", "UniProt P32300, whole entry, looked up": "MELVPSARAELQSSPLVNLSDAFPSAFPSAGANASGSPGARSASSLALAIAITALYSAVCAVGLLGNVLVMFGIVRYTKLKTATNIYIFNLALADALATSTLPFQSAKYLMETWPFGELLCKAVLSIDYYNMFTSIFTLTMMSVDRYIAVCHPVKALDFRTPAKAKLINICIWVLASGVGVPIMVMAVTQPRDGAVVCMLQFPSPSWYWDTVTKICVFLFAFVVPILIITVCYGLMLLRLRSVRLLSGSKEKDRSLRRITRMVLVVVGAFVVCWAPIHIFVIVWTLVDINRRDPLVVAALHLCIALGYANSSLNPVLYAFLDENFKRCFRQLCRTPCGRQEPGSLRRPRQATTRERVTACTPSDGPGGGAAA"}, "source": "patent US7297771B2", "about": "(priority 1992, dated 2007)", "molecular_target": "delta opioid receptor of NG 108-15 cells (Mus musculus, UniProt P32300)", "settings": "NG 108-15 cells (native delta opioid receptor)"}
{"compound": "CN(C(=O)Cc1ccc(Cl)c(Cl)c1)[C@@H]1CCCC[C@H]1N1CCCC1", "note": "(racemic)", "values": [{"measurement": "PKi NG 108-15", "result": 4.24}]}
